For two substances, koff and kon results are on record in paper PMC6650433, “Evolution of metazoan oxygen-sensing involved a conserved divergence of VHL affinity for HIF1α and HIF2α” (Nature Communications, 2019).

What is called koff is the rate constant with which the complex falls apart. One may read the kon as the second-order rate constant of association.

The target in this experiment is VHL-elongin B-elongin C (VBC) complex, wild type, P40337;Q15370;Q15369. Description: biolayer interferometry (BLI). To be noted: read off a plot. (In general: BLI is a label-free optical method that tracks binding on a fibre tip over time.)

Turning to “hydroxylated HIF1α peptide (556–573), biotinylated D570delinsGE”, the koff was 0.0049 s⁻¹ (parent: est. 0.0044 s-1) and 0.0051 s⁻¹ (parent: est. 0.0047). For the same substance, the on-rate (kon) (parent: est. 26000 M-1 s-1) came to 30000 M⁻¹ s⁻¹.
As for “hydroxylated HIF2α peptide (523–541), biotinylated G537del”, under “parent: est. 40000 M-1 s-1”, the kon was determined as 33000 M⁻¹ s⁻¹.
